Patent publication US20110092476A1, “Bicycloheteroaryl compounds as P2X7 modulators and uses thereof” (Renovis, Inc., priority 2006, published 2011)

Amino acid sequences for entries named in this document (tags omitted). A change or cut given only in a name is not applied to a line headed by its entry.
UniProt Q99572: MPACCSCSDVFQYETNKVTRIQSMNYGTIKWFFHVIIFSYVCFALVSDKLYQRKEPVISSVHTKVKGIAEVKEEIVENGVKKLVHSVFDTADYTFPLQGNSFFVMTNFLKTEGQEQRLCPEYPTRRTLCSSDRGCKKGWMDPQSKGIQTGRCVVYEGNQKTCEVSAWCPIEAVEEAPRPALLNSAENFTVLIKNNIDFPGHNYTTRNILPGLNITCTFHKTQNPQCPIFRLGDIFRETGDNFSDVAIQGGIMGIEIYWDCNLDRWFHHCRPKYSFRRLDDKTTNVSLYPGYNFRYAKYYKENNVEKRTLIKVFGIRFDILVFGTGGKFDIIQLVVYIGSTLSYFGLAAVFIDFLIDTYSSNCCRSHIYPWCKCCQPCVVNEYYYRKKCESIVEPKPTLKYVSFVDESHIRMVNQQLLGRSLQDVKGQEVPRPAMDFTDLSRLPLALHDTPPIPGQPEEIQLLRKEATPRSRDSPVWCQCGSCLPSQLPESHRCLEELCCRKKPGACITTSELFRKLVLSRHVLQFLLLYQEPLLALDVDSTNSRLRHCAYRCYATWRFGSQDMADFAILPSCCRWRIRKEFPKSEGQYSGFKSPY

Target: T1, P2X7 receptor (Homo sapiens, UniProt Q99572)
T1 construct: host or cells: THP-1 cells differentiated with LPS and IFN-γ
Experiment: IL-1β release assay in differentiated THP-1 cells stimulated with BzATP (Example 9)
Type: cell-based
Settings: THP-1, read-out: IL-1β % Inhib. @ 0.3 or 0.1 uM
Method: THP-1 cells (ATCC Cat #285-IF-100) are plated in 96 well plates at a concentration of 200,000 cells per well and allowed to differentiate in RPMI-1640 media (ATCC Cat #30-2001) containing 10% FBS, 100 IU/mL penicillin, 100 ug/mL streptomycin, 100 ng/mL LPS and 100 ng/mL IFN-γ for 16 hours. Following differentiation, the cells are treated for an additional 2 hours in RPMI-1640 media containing 100 IU/mL penicillin, 100 ug/mL streptomycin and fresh LPS at 100 ng/mL. The cells are then pretreated for 30 minutes with the compound of interest at the appropriate concentration in RPMI media containing 100 IU/mL penicillin, 100 ug/mL streptomycin. […] 30 uL of cell supernatant is then collected and IL-1β levels determined via ELISA (R&D systems Cat. #HSLB50) according to manufacturer's recommendations using the Tecan Safire plate reader. […]
The following compounds have been or can be prepared according to the synthetic methods described herein for example, method A-AK. For the purpose of Table 1 below, activity of each compound, which can be determined using the IL-1β assay method described in Example 9, is expressed as follows: […]
The compounds set forth in Table 1 were tested for activity in a cellular model as described herein. Specifically, cells were pretreated with differing amounts of the compound under test and released IL-1β determined as in Example 9, above. […]

**Q.** O=C(Cc1ccc(Cl)c(C(F)(F)F)c1)Nc1cccc2c(=O)n(CCO)ccc12 [Compound 65, 2-(4-Chloro-3-trifluoromethyl-phenyl)-N-[2-(2-hydroxy-ethyl)-1-oxo-1,2-dihydro-isoquinolin-5-yl]-acetamide] was tested. Which inhibition at 0.3 µM did it give?
**A.** > 76%
